# Ab-14 light chain CDR variants: yeast mating affinities

Data: MIT Lincoln Laboratory AlphaSeq set, Li et al. 2023, doi:10.1038/s41467-023-39022-2, as distributed in FLAb.

Target: peptide PDVDLGDISGINAS, taken from heptad repeat 2 (HR2) of SARS-CoV-2 spike.

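Designed CDR sequences, proposed from the first random library and measured here. Several design methods are mixed in this list. The scFvs were displayed on barcoded MATa yeast, the peptide on MATalpha yeast. Pairs that bind mate more often; barcode pairs of the diploids are counted by sequencing. Each replicate has its own calibration line, from reference interactions of the BCL2 family. The assay was run in six technical replicates.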

Parent: Ab-14, a human scFv built as VH, a 15-residue (Gly4Ser)3 linker, VL. Only the CDRs of the light chain vary.
VH: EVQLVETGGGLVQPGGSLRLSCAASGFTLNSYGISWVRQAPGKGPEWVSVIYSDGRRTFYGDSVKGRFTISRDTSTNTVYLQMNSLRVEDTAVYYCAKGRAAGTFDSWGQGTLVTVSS
VL: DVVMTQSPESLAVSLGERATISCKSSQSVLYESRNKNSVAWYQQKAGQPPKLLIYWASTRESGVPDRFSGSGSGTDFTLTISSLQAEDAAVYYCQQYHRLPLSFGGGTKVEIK

Changes read parent residue, position, new residue, counted from the first residue of the VL shown.
This list holds designs with at most six substitutions.
Each Kd is an estimate from the mating assay, the geometric mean of the replicates in which the pair was seen; lower is stronger.
A pair that was not seen in any replicate is written "nd"; this usually means weak binding, but a binder can also be missed.
Background: pairings of all light chain designs with three empty control strains gave a value in 4% of cases (median 430 nM, 5th percentile 38 nM). Values in that range, when seen in few replicates, are hard to tell from nonspecific mating.
Values of this round are not directly comparable with the first-round values of the same sequences.
The authors averaged sequences with at least three values out of six and counted those with two or fewer as poor binders.

changes,apparent Kd,replicates with signal
S25L+S33Q+S38N+W56N,300 pM,6/6
S33R+S38N+W56G+A57S+S62L,14 nM,6/6
S25I+S26L+V29W+W56H+S62Q,2.6 nM,6/6
S26G+S28G+N35M+W56G,4.6 nM,6/6
S25F+S28E+V29K+W56D,1.2 nM,6/6
S25Q+Q27Y+L30E+E32T,nd,0/6
S25Q+Y31A+W56M,3.7 nM,6/6
S25W+Y31F+E32Q+W56D,1.2 nM,6/6
S25I+L30M+W56A,4.5 nM,6/6
L30E+Y31I+R34G+K36T+T59L+H98F,36 nM,2/6
S25L+Q27I+V29Y+W56E+S103M,2.6 nM,6/6
S25F+S26Q+V29E+W56N,990 pM,6/6
S25M+Y31Q+R34C+N35D+W56Q,5.6 nM,6/6
S33L,nd,0/6
S25V+Q27I+V29Y+Y31T+W56E,5.0 nM,6/6
S25L+V29W+N35M+W56N+T59Q+E61L,2.4 nM,6/6
K24V+V29N+R34N+W56N,790 pM,6/6
S25L+S26Q+W56N+T59Q+S62Q,460 pM,6/6
S25V+S26E+V29Y+W56N,370 pM,6/6
L30R+T59K+S62R,nd,0/6
K24H+Q27P+K36G+S38D+V39E+W56N,nd,0/6
S25Y+V29W+W56G+T59S,910 pM,6/6
S25L+S26M+S28G+W56G,180 pM,6/6
Q27I+V29Y+K36C+W56E,6.4 nM,6/6
S62L+R99H+L102Y+S103M,58 nM,2/6
S25L+V29M+K36W+W56N+T59Q+E61L,2.0 nM,6/6
S25I+S26Q+W56N,530 pM,6/6
S25V+V29H+W56E+T59Q,680 pM,6/6
S25A+V29Q+L30G+N37W+W56N,4.0 nM,6/6
R34N+N37H,37 nM,6/6
S25L+K36S+W56N+S62Q,430 pM,6/6
Q27D+L30H+R34A+Q95S,1.7 µM,4/6
V29F+W56G+R60W+R99A+P101T,nd,0/6
L30D+K36H+S62Y+H98Y,24 nM,4/6
K24F+S25L+V29E+W56N+E61L,980 pM,6/6
S25L+L30E+Y31M+W56E,590 pM,6/6
S25L+S26A+V29Q+W56N,7.4 nM,6/6
S25L+V29Y+W56N+E61M,3.4 nM,6/6
Q27I+V29G+W56E+S62E,600 pM,6/6
K24S+S25L+S26M+W56H+T59M+S62D,2.1 nM,6/6
S25V+S26A+V29W+Y31M+W56E+E61Q,3.2 nM,6/6
S25V+S26G+V29F+Y31Q+W56H+T59L,1.1 nM,6/6
S25T+S26Q+S28G+W56G+T59V,540 pM,6/6
W56A+E61I+Q96E,nd,0/6
V29M+Y31S+E32G+S38H,380 nM,1/6
K24Y+S25C+H98V,nd,0/6
S25L+S26E+V29E+L30G+W56N,380 pM,6/6
V29L+E32T+W56G,29 nM,6/6
S25M+S28A+V29F+W56D+S58N,2.2 nM,6/6
S25I+V29A+Y31M+W56N+T59K,700 pM,6/6
S25W+S26L+W56H+S62D+H98G,nd,0/6
S25L+V29Q+W56N+A57G+Q96D,630 pM,6/6
S26M+S28G+S38H+W56G,1.6 nM,6/6
S25L+V29N+S38N+W56D,330 pM,6/6
Q27I+V29Y+R34E+N37L+W56E+T59Q,35 nM,4/6
S25L+S26R+V29T+K36Q+W56H,1.1 nM,6/6
S25L+S28Q+V29M+S38N+W56A+T59D,1.2 nM,6/6
S25M+S26I+S28H+V29D,69 nM,6/6
S25D+S26R,58 nM,5/6
Y31V+S33T,140 nM,4/6
S25Y+W56Q+S58T,1.5 nM,6/6
Y31M+W56H,22 nM,6/6
R34F+W56A+S103Y,75 nM,1/6
K24H+S25L+Q27D+W56N+S103L,600 pM,6/6
K24R+S25L+W56D,400 pM,6/6
Y31S+N35R+T59E+H98K,780 nM,3/6
S25C+R34P,14 nM,6/6
S25V+N35V+W56N+T59Q,950 pM,6/6
S26G+Q27C+S28G+V29D+W56G,140 nM,1/6
S25L+S26L+Y31L+K36W+W56N+S62L,660 pM,6/6
S25L+S26Q+V29E+W56N,1.7 nM,6/6
S25V+Y31F+W56D+T59F,580 pM,6/6
Q27F+S38N+W56E,10 nM,6/6
S25T+Y31G+S33Q+W56D+A57I,nd,0/6

Excerpt, the first 6 entries:

changes,apparent Kd,replicates with signal
S25L+S33Q+S38N+W56N,300 pM,6/6
S33R+S38N+W56G+A57S+S62L,14 nM,6/6
S25I+S26L+V29W+W56H+S62Q,2.6 nM,6/6
S26G+S28G+N35M+W56G,4.6 nM,6/6
S25F+S28E+V29K+W56D,1.2 nM,6/6
S25Q+Q27Y+L30E+E32T,nd,0/6